Measurements from patent publication US7790738B2, “Methods of treating and preventing AIDS using of COX-2 inhibitors” (Lauras AS, priority 2000, dated 2010).

Chains of the proteins cited; added tags and fusions are not shown. Residues count along the entry.
UniProt P23219, 24-599: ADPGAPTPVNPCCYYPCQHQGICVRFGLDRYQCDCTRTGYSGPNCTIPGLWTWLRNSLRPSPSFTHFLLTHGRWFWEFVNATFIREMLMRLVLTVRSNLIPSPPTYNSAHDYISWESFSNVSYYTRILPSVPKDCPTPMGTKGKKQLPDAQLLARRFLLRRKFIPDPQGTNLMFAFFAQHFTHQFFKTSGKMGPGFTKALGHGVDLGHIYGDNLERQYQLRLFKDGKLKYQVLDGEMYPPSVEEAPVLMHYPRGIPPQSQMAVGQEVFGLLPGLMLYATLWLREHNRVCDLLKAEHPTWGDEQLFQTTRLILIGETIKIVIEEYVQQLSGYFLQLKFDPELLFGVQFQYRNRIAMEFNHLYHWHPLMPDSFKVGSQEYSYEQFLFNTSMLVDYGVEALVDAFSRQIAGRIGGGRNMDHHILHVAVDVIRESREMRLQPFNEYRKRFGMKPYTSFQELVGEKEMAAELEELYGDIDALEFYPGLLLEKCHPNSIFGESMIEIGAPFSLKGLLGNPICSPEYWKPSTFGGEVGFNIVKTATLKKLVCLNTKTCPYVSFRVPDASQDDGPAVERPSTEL

Tests used:
[1] = biological target: T1, COX-1 (Homo sapiens, UniProt P23219)
[2] = biological target: T1, COX-1; conditions: cited from earlier work
[3] = tested on: lymph node mononuclear cells from MAIDS and control mice; experiment: anti-CD3 induced T cell proliferation in mixed unsorted lymph node cells, compound added in vitro; conditions: Mus musculus, read-out: concentration producing half-maximal effect (ED50) on T cell proliferation
[4] = read-out: COX-1 IC50; recombinant human PGH synthesis; Laneuvill et al. 1994; cited from earlier work

Question: Which IC50 [1, 4] does the source give for CC(C(=O)O)c1ccc(-c2ccccc2)c(F)c1 (centres unmarked) [Flubiprofen] here?
Answer: The IC50 was 0.5 µM.

Question: Which IC50 ([1]; recombinant human PGH synthesis; Laneuvill et al. 1994; read-out: COX-1 IC50; cited from earlier work) does the source give for CCCCC1C(=O)N(c2ccccc2)N(c2ccccc2)C1=O [Phenylbutazone] here?
Answer: The IC50 was 16 µM.

Question: For CN1C(C(=O)Nc2ccccn2)=C(O)c2ccccc2S1(=O)=O [Piroxicam], which IC50 [1, 4] is on record?
Answer: The IC50 was 17.7 µM.

Question: With CS(=O)(=O)c1ccc(C2=C(c3ccccc3)C(=O)OC2)cc1 [rofecoxib] as the compound, how does the COX-1 inhibition [2] read?
Answer: The COX-1 inhibition was “inhibited only at micromolar concentrations”.

Question: And the EC50 [3]?
Answer: Its EC50 is about 0.01 µM.

Like-named read-outs stand apart in the source and are kept apart here.
